Source: PubChem BioAssay AID2675 (National Center for Advancing Translational Sciences (NCATS), 2010)
This is a selection; strong and weak results do not stand in their true shares. Inconclusive results are not listed. Activity calls are given as the source filed them. The call rests on the fitted dose curve; in most records, active means well fitted inhibition curve with a large enough effect in the signal ratio, with a control signal flat (not every such curve was filed as active); inconclusive means small, poorly fitted or top-dose-only effect, or effect the other way, or a change in a side signal; inactive means no such curve, though single readings can be large or run the other way; the % refers to the signal ratio.

Sequences of proteins named here, by UniProt entry; tags and fusion partners are left off. A change or cut given only in a name is not applied to a line headed by its entry.
UniProt Q9NR56: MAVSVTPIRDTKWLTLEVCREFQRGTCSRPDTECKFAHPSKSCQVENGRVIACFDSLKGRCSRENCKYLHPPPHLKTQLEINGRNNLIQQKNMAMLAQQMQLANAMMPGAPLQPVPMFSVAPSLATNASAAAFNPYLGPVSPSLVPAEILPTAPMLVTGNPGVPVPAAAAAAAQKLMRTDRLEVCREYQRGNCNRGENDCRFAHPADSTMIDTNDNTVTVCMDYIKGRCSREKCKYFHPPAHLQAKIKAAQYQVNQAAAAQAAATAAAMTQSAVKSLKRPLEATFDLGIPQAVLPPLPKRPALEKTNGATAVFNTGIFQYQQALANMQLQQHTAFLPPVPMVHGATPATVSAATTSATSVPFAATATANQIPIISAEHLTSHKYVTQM

target: Muscleblind-like protein 1 (Homo sapiens) (UniProt Q9NR56); test: qHTS Assay for Inhibitors of MBNL1-poly(CUG) RNA binding; conditions: TR-FRET MBNL1-His/biotin-(CUG)12 binding, 665/545 ratio; at 57.5 µM (top of the series) unless noted
On the % scale 0 is the no-effect control and ±100 the full control effect.

Row | SMILES | activity change, negative = inhibition
1 | CC(=O)NC(SC(=S)N(C)C)C(Cl)(Cl)Cl (centres undefined) | inactive: -6.83% [at 11.5 µM]
2 | O=[As](O)(c1ccccc1)c1ccc(O)cc1 | inactive: 0.703%
3 | C(Cc1nn[nH]n1)Cc1nn[nH]n1 | inactive: -27%
4 | O=C(OC1CN2CCC1CC2)c1cccc(Cl)c1 (centres undefined) | inactive: -2.33%
5 | O=P(Nc1ccccn1)(c1ccc(Br)cc1)c1ccc(Br)cc1 | inactive: -8.2%
6 | CN(C)C1(CNC(=O)c2ccc(Cl)c(S(N)(=O)=O)c2)CCCCC1 | inactive: -4.97%
7 | C[C@H]1OP(=O)(Oc2ccccc2)[C@H](O)[C@H](O)[C@H]1N=[N+]=[N-] (some centres undefined) | inactive: 0.393%
8 | O=P(Nc1nccs1)(c1ccccc1)c1ccccc1 | inactive: -1.51%
9 | c1nnnn1CCn1cnnn1 | inactive: -3.25%
10 | CC(=O)c1ccc(N2CC2c2ccncc2)cc1 (centres undefined) | inactive: 8.27%
11 | C[C@H]1OP(=O)(Oc2ccccc2)C[C@@H]2O[C@@H]21 (some centres undefined) | inactive: -3.28%
12 | C[C@@H]1C=CCP(=O)(Oc2ccccc2)O1 (some centres undefined) | inactive: 2.46%
13 | CC(=O)Nc1ccc([As](=O)(O)O)c(O)c1 | inactive: -28.8%
14 | O=P1(Nc2nc3ccc(Cl)cc3s2)COc2ccccc2O1 (centres undefined) | inactive: -3.49%
15 | CCOc1ccc(C2=NCC(CBr)S2)cc1 (centres undefined) | inactive: -0.376%
16 | CC(C)(C)C(=O)NC(Sc1ccccc1)C(Cl)(Cl)Cl (centres undefined) | inactive: 9.05%
17 | COC(=O)c1cc2c(s1)N=C(c1ccccc1)N(C)P2(=O)N1CCOCC1 (centres undefined) | inactive: 5.21%
18 | CC(=O)NC(SC(=S)N(CC(C)C)CC(C)C)C(Cl)(Cl)Cl (centres undefined) | inactive: 6.45%
19 | Cc1ccc(OP(=O)(Nc2ccccn2)Oc2ccc(C)cc2)cc1 | inactive: -5.78%
20 | O=C(OC1CN2CCC1CC2)c1ccccc1 (centres undefined) | inactive: -10.9%
21 | CCC(=O)N1C2C3N(C(=O)CC)C1C1N(C(=O)CC)C(C(N1C(=O)CC)N3C(=O)CC)N2C(=O)CC | inactive: -7.41%
22 | Cc1ccccc1OP(=O)(Nc1ccccn1)Oc1ccccc1C | inactive: -5.07%
23 | CN(C)C(=O)Oc1noc2ccccc12 | inactive: -0.886%
24 | CCNC(=S)/N=C(\N)N[N+](=O)[O-] | inactive: -4.25%
25 | O=C(NC1CCS(=O)(=O)C1)NP(=S)(Oc1ccccc1)Oc1ccccc1 (centres undefined) | inactive: -3.43%
26 | c1ccc(-c2nn[nH]n2)c(-c2nn[nH]n2)c1 | inactive: 8.65%
27 | Cc1ccc(NP(=O)(Oc2cccc(C)c2)Oc2cccc(C)c2)nc1 | inactive: 3.13%
28 | CCOC(=O)NC(Sc1ccccc1)C(Cl)(Cl)Cl (centres undefined) | inactive: -4.98%
29 | CCN(N=Nc1nonc1N)c1nonc1N | inactive: 2.58%
